Yeast mating assay B: variants of the scFv Ab-14

From the AlphaSeq antibody data of Li et al. 2023 (doi:10.1038/s41467-023-39022-2), copy in the FLAb collection.

Antigen: PDVDLGDISGINAS, a 14-residue peptide of the SARS-CoV-2 spike HR2 region.

Parent: Ab-14, a human scFv built as VH, three GGGGS repeats, VL. Only the CDRs of the heavy chain vary.
VH: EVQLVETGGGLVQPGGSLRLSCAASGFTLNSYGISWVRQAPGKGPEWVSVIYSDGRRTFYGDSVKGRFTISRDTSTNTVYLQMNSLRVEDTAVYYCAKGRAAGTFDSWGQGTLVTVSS
VL: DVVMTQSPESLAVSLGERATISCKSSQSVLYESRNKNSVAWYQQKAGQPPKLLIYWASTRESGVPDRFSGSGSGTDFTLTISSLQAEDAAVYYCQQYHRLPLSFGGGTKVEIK

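The parent was found by panning a naive human phage display library on the peptide. The variants were designed computationally from a first round of random CDR variants and then made and measured. Their group label is 14H_GP_Gibbs (GP: Gaussian process model; Gibbs: Gibbs sampling; a sequence that several methods proposed may carry one label only). The scFvs were displayed on barcoded MATa yeast, the peptide on MATalpha yeast. Mating (16 h, 30 °C) was followed by selection of diploids and sequencing of their barcodes. The ratio of observed to expected reads was calibrated, replicate by replicate, on BCL2-family standards whose Kd was known from biolayer interferometry. Each pool was mated in six replicate cultures.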

Changes read parent residue, position, new residue, counted from the first residue of the VH shown.
Affinities are written as log10 Kd with Kd in nM; a lower number is a better binder.
A pair that was not seen in that replicate is written "ND"; this usually means weak binding, but a binder can also be missed.

changes	log10 Kd (nM) by replicate	signal with controls
T28D+S31Q+A101Q	0.77 0.45 1.11 0.22 0.36 0.88	0/18
T28S+G61A+S63D+R100K+A101E	0.03 -0.16 -0.15 -0.35 -0.46 -0.14	0/18
T28W+S31D+G61T+A101T	2.28 1.87 ND 1.24 1.29 ND	0/18
G26K+T28D+R100W	ND ND ND ND ND ND	0/18
G26K+T28D+G61C+A101E	ND 1.65 ND 2.03 ND ND	0/18
T28E+R100V+A101L+S107K	0.50 0.32 0.75 1.05 0.41 0.82	1/18 (2.14)
T28S+G61D+R100W+A101M	1.34 1.93 1.73 1.59 2.72 1.55	0/18
T28E+G61A+A101E+S107A	1.34 0.43 1.10 1.27 0.16 2.56	0/18
T28Q+S31E+S63Q+R100Q+A101T+S107E	0.88 1.04 0.60 0.48 0.33 0.68	1/18 (4.49)
T28S+S63P+R100K+A101I	0.54 0.36 0.20 0.36 0.57 0.48	0/18
T28Q+S31E+G61K+R100Q+A101T	1.11 0.74 0.22 0.30 0.29 0.17	2/18 (1.81)
T28D+S63D+R100N+S107K	0.19 0.26 -0.18 0.04 0.38 0.37	0/18
T28E+S31E+S107V	0.29 0.15 -0.07 -0.07 0.00 0.15	0/18
G26K+T28D+R56K+G61K+A101T	2.15 2.59 1.47 1.38 1.45 1.62	2/18 (2.91)
T28H+G61H+A101E	0.40 -0.29 0.24 -0.30 -0.29 -0.02	0/18
T28E+R100H	1.21 2.05 1.19 1.35 1.60 1.43	1/18 (3.81)
T28E+G61K+R100K+A101V	1.29 0.06 0.56 0.46 0.71 0.26	0/18
T28N+S63K+R100Q+A101T	1.43 0.62 0.61 0.18 1.27 1.14	0/18
T28E+S31M+G61H+R100Q	1.21 0.21 0.80 0.51 0.63 1.13	0/18
T28Q+S31T+G61A+A101E	ND ND ND ND ND ND	0/18
T28D+A101T+T104S+S107V	0.30 0.23 0.01 -0.01 -0.07 0.53	1/18 (3.36)
T28E+G61S+R100K+S107T	0.43 0.12 0.64 0.02 -0.08 -0.32	0/18
R56Q+A101V+S107M	1.30 ND ND ND 2.47 ND	0/18
R56K+G61A+R100H+S107G	1.00 1.25 1.50 1.03 1.81 0.86	0/18
T28E+S31A+S63Q+A101T	1.32 0.97 1.31 1.25 2.04 1.15	2/18 (2.89)
T28A+S31E+R56K+A101T	-0.14 -0.18 -0.34 -0.34 -0.53 -0.29	2/18 (1.93)
T28S+S31E+R56K+R100K+A101T	-0.09 -0.17 -0.35 -0.22 -0.31 -0.02	0/18
T28K+G61S+R100K	1.55 1.58 1.10 1.58 0.99 1.34	0/18
S53A+S63Q+A101T	0.93 0.38 0.50 0.73 0.85 0.57	0/18
T28Q+S31E+G61Q+R100E	-0.34 -0.05 0.10 -0.07 -0.52 -0.03	0/18
T28Q+S31E+S63Q+R100Q+S107K	0.73 0.81 0.71 1.17 0.39 0.81	0/18
T28Q+S31E+G61V+R100Q+A101T	-0.20 0.73 1.27 -0.15 -0.08 0.89	0/18
T28G+S31E+G61H+D106W	ND 1.62 0.07 0.42 ND 0.91	0/18
T28D+S31E+F59M+A101Q	0.11 0.88 1.34 0.38 0.68 0.70	0/18
G26K+T28G+G61Q+A101T	ND ND ND ND 3.18 ND	1/18 (4.66)
G61A+S63D+A101V+S107V	ND 1.37 ND ND 1.59 ND	0/18
R56K+G61S+S63D+R100Q+S107T	0.72 0.37 0.69 0.46 0.45 0.53	0/18
G26K+T28S+S31W+G61I+A101T	ND ND ND ND ND ND	1/18 (2.48)
T28N+T58S+G61A+A101E	0.94 0.44 0.42 0.03 0.49 0.25	0/18
T28S+S31D+G61S+A101E	-0.27 -0.39 -0.39 -0.77 -0.54 -0.22	0/18

A selection of 3 entries from above:

| changes | log10 Kd (nM) by replicate | signal with controls |
|---|---|---|
| G26K+T28G+G61Q+A101T | ND ND ND ND 3.18 ND | 1/18 (4.66) |
| T28Q+S31E+G61K+R100Q+A101T | 1.11 0.74 0.22 0.30 0.29 0.17 | 2/18 (1.81) |
| G26K+T28S+S31W+G61I+A101T | ND ND ND ND ND ND | 1/18 (2.48) |

As a blank, each scFv also met three strains without target: over all heavy chain designs, 1% of these pairings were detected, typically at 2.08 and seldom below 0.84. For each scFv, signals with the empty controls are counted beside the result, with their mean in brackets.
Of ten entries with the parent sequence, four were seen in most replicates (averages 0.34 to 2.37), three in one and three in none, so single entries are noisy.
In the paper, a design with two or fewer of six values counts as a poor binder.
A sequence measured in both rounds can read differently, since the two assays cover different ranges.